Measurements published in PMC10986131.

Tests used:
[1] = biological target: T1, TRAF6 (as co-transfected with FLAG-AKT in Fig. 2B), Q9Y4K3; assay: co-immunoprecipitation (anti-FLAG beads) with immunoblot densitometry; conditions: chain shown with the change, HEK293 cells expressing D3R (1.9 ~ 2.1 pmol/mg protein), n = 3, read off a plot
T1 chain: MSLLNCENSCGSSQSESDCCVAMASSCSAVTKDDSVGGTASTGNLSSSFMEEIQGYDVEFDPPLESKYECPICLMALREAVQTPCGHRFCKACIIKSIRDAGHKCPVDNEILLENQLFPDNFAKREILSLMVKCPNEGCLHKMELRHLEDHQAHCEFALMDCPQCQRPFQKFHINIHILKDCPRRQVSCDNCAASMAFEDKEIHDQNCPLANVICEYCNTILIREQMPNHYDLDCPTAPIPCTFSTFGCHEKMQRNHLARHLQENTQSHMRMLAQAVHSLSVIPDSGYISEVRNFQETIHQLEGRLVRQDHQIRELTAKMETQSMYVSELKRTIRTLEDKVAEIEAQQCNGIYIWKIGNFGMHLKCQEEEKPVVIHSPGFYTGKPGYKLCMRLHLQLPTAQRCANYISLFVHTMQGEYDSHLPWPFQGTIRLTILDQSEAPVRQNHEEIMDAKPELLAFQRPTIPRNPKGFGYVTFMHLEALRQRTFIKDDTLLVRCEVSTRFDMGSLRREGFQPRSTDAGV

GFP-Mdm2 = assay: co-immunoprecipitation with immunoblot densitometry; conditions: chain shown with the change, HEK293 cells expressing D3R, n = 3, read off a plot

other: Fold increase in AKT bound to TRAF6 ([1]; Quin '+' (100 nM Quin for 5 min, single treatment), parent: est. 2.1): 2.1 fold | other: Fold increase in AKT bound to TRAF6 ([1]; Quin '-' (no quinpirole), parent: est. 1.0): 2.5 fold | other: Fold increase in AKT bound to Mdm2 (GFP-Mdm2; Quin '+' (100 nM Quin for 5 min, single treatment), parent: est. 1.4): 1.2 fold | other: Fold increase in AKT bound to Mdm2 (GFP-Mdm2; Quin 'w/+' (100 nM Quin for 5 min, washed, and re-challenged), parent: est. 3.0): 1.2 fold
B1: FLAG-WT-AKT, P31749 K8R; K14R (protein)
chain: MSDVAIVREGWLHRRGEYIKTWRPRYFLLKNDGTFIGYKERPQDVDQREAPLNNFSVAQCQLMKTERPRPNTFIIRCLQWTTVIERTFHVETPEEREEWTTAIQTVADGLKKQEEEEMDFRSGSPSDNSGAEEMEVSLAKPKHRVTMNEFEYLKLLGKGTFGKVILVKEKATGRYYAMKILKKEVIVAKDEVAHTLTENRVLQNSRHPFLTALKYSFQTHDRLCFVMEYANGGELFFHLSRERVFSEDRARFYGAEIVSALDYLHSEKNVVYRDLKLENLMLDKDGHIKITDFGLCKEGIKDGATMKTFCGTPEYLAPEVLEDNDYGRAVDWWGLGVVMYEMMCGRLPFYNQDHEKLFELILMEEIRFPRTLGPEAKSLLSGLLKKDPKQRLGGGSEDAKEIMQHRFFAGIVWQHVYEKKLSPPFKPQVTSETDTRYFDEEFTAQMITITPPDQDDSMECVDSERRPHFPQFSYSASGTA
other: Fold increase in AKT bound to TRAF6 ([1]; Quin 'w/+' (100 nM Quin for 5 min, desensitization protocol: washed and re-challenged), parent: est. 7.5): 2.5 fold
